Test system: human platelets (GFP, PRP)
Experiment: Platelet aggregation induced with biochemical agonists (optical aggregometer)
Type: cell-based
Conditions: platelet-rich plasma; 10 uM ADP, 10 μg/mL epinephrine; 1 mM CaCl2, 5 min, 37° C.
Description: Platelet aggregation was assessed in PRP or GFP samples employing dual channel optical aggregometer (Model 560-VS, Chrono-Log Corporation, Havertown, PA). […] Platelet count in aggregation mixture was adjusted to 150-200×10^3 plt/μL (in GFP) and to 300-350×10^3 plt/μL (in PRP), final CaCl2 concentration was 1 mM. Aggregation was started by adding mentioned agonists and running for 5 minutes at 37° C. with 1000 rpm stirring. The changes in relative light transmittance were recorded, and arbitrary values for each aggregation curve were calculated with Aggrolink software (Chrono-Log Corporation, Havertown, PA).
To define the molecular signature of SMPA, biochemical versus mechanical platelet activation by uniform shear stress applied in the hemodynamic shearing device (HSD) was compared. To induce biochemical activation, human GFP were treated with the panel of physiologically relevant soluble agonists-ADP, epinephrine, TRAP-6, thrombin, collagen or arachidonic acid. […] Initially, the P-selectin exposure, as a known marker of platelet activation and α-granule secretion, was detected employing mono immunostaining and quantified by flow cytometry. Those cells showing high fluorescence intensity (≥3000 AU) were gated as P-selectin positive platelets and marked as sub-population P6 (FIGS. 2A-2G).

CNC[C@H](O)c1ccc(O)c(O)c1 [epinephrine]
ability to induce platelet aggregation in PRP: induce platelet aggregation
